Source: patent US6184374A, “Targeted cytotoxic anthracycline analogs” (priority 1998, dated 2001)

Biological target: T1, rat pituitary receptors (Rattus norvegicus, UniProt P30969)
T1 construct: from tissue; host or cells: rat pituitary
T1 sequence (P30969 1-327): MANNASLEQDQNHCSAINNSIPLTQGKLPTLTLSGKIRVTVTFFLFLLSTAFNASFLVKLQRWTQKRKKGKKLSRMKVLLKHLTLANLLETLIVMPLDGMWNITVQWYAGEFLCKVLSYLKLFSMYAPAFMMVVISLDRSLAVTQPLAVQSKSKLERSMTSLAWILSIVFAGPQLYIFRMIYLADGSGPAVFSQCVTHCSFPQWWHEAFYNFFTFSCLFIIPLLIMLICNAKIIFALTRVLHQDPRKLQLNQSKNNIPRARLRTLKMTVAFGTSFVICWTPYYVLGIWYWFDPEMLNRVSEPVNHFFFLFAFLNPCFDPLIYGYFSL
Assay: Receptor binding potency, rat pituitary receptors

Compound: CC(C)C[C@H](NC(=O)[C@@H](CCCCN)NC(=O)[C@H](Cc1ccc(O)cc1)NC(=O)[C@H](CO)NC(=O)[C@H](Cc1c[nH]c2ccccc12)NC(=O)[C@H](Cc1cnc[nH]1)NC(=O)[C@@H]1CCC(=O)N1)C(=O)N[C@@H](CCCNC(=N)N)C(=O)N1CCC[C@H]1C(=O)NCC(N)=O [[D-Lys^6]LH-RH]
- IC50: 2.26 nM
